# From PMC9546861 (2022)
# B1: gephE-DNA conjugate (gephE coupled to the ligand strand) (domain or fragment)
# chain: MSPFPLTSMDKAFITVLEMTPVLGTEIINYRDGMGRVLAQDVYAKDNLPPFPASVKDGYAVRAADGPGDRFIIGESQAGEQPTQTVMPGQVMRVTTGAPIPCGADAVVQVEDTELIRESDDGTEELEVRILVQARPGQDIRPIGHDIKRGECVLAKGTHMGPSEIGLLATVGVTEVEVNKFPVVAVMSTGNELLNPEDDLLPGKIRDSNRSTLLATIQEHGYPTINLGIVGDNPDDLLNALNEGISRADVIITSGGVSMGEKDYLKQVLDIDLHAQIHFGRVFMKPGLPTTFATLDIDGVRKIIFALPGNPVSAVVTCNLFVVPALRKMQGILDPRPTIIKARLSCDVKLDPRPEYHRCILTWHHQEPLPWAQSTGNQMSSRLMSMRSANGLLMLPPKTEQYVELHKGEVVDVMVIGRL
# modifications: ssDNA (cNL-A48, ligand strand) covalently coupled by its 5' end to a primary amine of the protein (NHS coupling)
# Tests used:
# [1] = biological target: octamer e=8, o1=0, o2=2, o3=2
# [2] = biological target: octamer e=8, o1=1, o2=3, o3=0
# [3] = biological target: octamer e=8, o1=1, o2=1, o3=2
# [4] = biological target: octamer e=8, o1=1, o2=2, o3=1
# [5] = biological target: octamer with the lowest affinity (flexible movement of the two sides, sterically restricted epitopes within … (epitopes linked by PEG moieties to L-lysine cores; free N-terminal amino end and C-terminal amide group)
# [6] = biological target: octamer e=8, o1=2, o2=2, o3=0
# [7] = biological target: octamer e=8, o1=2, o2=1, o3=1
# [8] = biological target: octamer e=8, o1=3, o2=0, o3=1
# [9] = biological target: octamer e=8, o1=2, o2=0, o3=2
# [10] = biological target: octamer e=8, o1=0, o2=4, o3=0
# [11] = biological target: octamer e=8, o1=3, o2=1, o3=0
# [12] = biological target: octamer e=8, o1=0, o2=1, o3=3
# [13] = biological target: octamer e=8, o1=1, o2=0, o3=3
# [14] = biological target: octamer e=8, o1=0, o2=3, o3=1
# [15] = biological target: compound e = 8, o1 = 0, o2 = 4 (epitopes linked by PEG moieties (o1 = 0, o2 = 4) to L-lysine cores)
binder,measurement,setting,value
B1,Kd,[1],201 nM
same,Kd,[2],241 nM
same,Kd,[3],208 nM
same,Kd,[4],201 nM
same,Kd,[5],245 nM
same,Kd,[6],184 nM
same,Kd,[7],214 nM
same,Kd,[8],105 nM
same,Kd,[9],179 nM
same,Kd,[10],214 nM
same,Kd,[11],159 nM
same,Kd,[12],199 nM
same,Kd,[13],218 nM
same,Kd,[14],193 nM
same,Kd,"tetramer e=6, o1=0, o2=4",357 nM
same,Kd,"tetramer e=6, o1=4, o2=0",734 nM
same,Kd,"tetramer e=8, o1=4, o2=0",442 nM
same,Kd,"tetramer e=7, o1=3, o2=1",1370 nM
same,Kd,"tetramer e=7, o1=1, o2=3",1100 nM
same,Kd,"tetramer e=8, o1=3, o2=1",484 nM
same,Kd,[15],743 nM
same,Kd,"tetramer e=6, o1=2, o2=2",523 nM
same,Kd,"tetramer e=6, o1=3, o2=1",1020 nM
same,Kd,"tetramer e=7, o1=2, o2=2",1680 nM
same,Kd,"tetramer e=8, o1=2, o2=2",521 nM
same,Kd,"tetramer e=7, o1=4, o2=0",1140 nM
same,Kd,"tetramer e=7, o1=0, o2=4",721 nM
same,Kd,"tetramer e=6, o1=1, o2=3",1350 nM
same,Kd,"tetramer e=8, o1=1, o2=3",632 nM
